Consider 1 compound from patent publication US8124647B2 (priority 2002, dated 2012).

The chains behind the UniProt entries cited, without tags or fusion partners.
UniProt P10275, whole entry: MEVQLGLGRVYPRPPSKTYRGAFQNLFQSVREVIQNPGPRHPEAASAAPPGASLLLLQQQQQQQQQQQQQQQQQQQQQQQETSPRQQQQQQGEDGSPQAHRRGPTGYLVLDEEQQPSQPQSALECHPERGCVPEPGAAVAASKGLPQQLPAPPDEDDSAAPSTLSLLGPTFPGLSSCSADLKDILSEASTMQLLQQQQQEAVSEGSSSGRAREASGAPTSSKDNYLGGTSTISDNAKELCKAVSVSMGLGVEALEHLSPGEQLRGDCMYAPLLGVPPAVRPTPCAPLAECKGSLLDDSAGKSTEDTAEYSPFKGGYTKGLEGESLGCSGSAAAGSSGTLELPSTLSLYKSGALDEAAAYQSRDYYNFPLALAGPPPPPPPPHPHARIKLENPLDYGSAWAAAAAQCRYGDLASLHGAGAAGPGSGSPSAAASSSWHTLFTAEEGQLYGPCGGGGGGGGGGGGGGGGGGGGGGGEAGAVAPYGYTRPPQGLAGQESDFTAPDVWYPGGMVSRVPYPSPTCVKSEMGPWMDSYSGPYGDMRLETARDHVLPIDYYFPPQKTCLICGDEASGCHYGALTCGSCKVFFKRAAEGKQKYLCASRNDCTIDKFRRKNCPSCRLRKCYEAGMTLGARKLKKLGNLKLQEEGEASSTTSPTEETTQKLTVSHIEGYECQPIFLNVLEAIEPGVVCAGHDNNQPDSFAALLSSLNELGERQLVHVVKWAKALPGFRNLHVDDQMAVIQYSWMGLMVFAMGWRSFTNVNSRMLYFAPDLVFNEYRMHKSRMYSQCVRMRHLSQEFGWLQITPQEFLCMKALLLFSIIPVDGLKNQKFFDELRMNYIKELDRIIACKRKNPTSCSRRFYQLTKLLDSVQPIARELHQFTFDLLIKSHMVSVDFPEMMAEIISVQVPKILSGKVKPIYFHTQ

Experiment [1] has as its target T1, human androgen receptor (Homo sapiens, UniProt P10275). Briefly: androgenic activity (EC50 and intrinsic activity), transactivation bioassay in CHO-AR-pMMTV-LUC cells (Table 4). The format is cell-based. Here is the method:
Compounds were tested for their Androgen Receptor activity in a transactivation assay and in a binding assay.
The (anti-)androgenic activity of test compounds (EC50 and intrinsic activity) was determined in an in vitro bioassay of Chinese hamster ovary (CHO) cells stably transfected with the human androgen receptor expression plasmid and a reporter plasmid in which the MMTV-promoter is linked to the luciferase reporter gene. The cell-line CHO-AR-pMMTV-LUC 1G12-A5-CA is described in Schoonen et al. (2000), Journal of Steroid Biochemistry and Molecular Biology 74(4):213-222. The antiandrogenic activity of a test compound was determined by the inhibition of the transactivation via the androgen receptor of the enzyme luciferase in the presence of 1 nM DHT (5α-dihydrotestosterone, 17β-hydroxy-5α-androstan-3-one). Intrinsic activity of antiandrogenic activity was determined in the presence of the reference antiandrogen 2-Hydroxy-2-methyl-N-(4-nitro-3-trifluoromethyl-phenyl)-propionamide(Hydroxyflutamide), and set at 100%. For androgenic activity, maximal intrinsic activity in the presence of 100 nM DHT was set at 100%.

In experiment [2] the target is T1, human androgen receptor. The conditions noted are these: in the presence of 1 nM DHT.

Like-named read-outs stand apart in the source and are kept apart here.

With `COc1ccc2c(Sc3ccccc3[N+](=O)[O-])cn(CCN3CCOCC3)c2c1`, on human androgen receptor [1] (maximal intrinsic activity in the presence of 100 nM DHT set at 1.00), the ago efficacy result is “± (± between 0.20 and 0.50)”. Moreover, the EC50 (in general, the concentration needed to bring the measured effect to its halfway point) on human androgen receptor [1] (read-out: ago EC50, androgenic activity, CHO-AR-pMMTV-LUC cells) was 1000 to 10000 nM; on human androgen receptor [2] (read-out: ant EC50, antiandrogenic activity) it was below 1000 nM. Moreover, the ant efficacy result on human androgen receptor [2] (reference antiandrogen Hydroxyflutamide set at 100%) is “+ (+ between 0.50 and 0.80)”.
